Laboratory results from EP0308983A2, “NMR imaging with Mn(II) coordination compositions” (priority 1987, dated 1989).

Columns and labels:
Rats [1] = details: IV, standard conditions, 10 animals per dosage group
From the text: The doses were 0.3, 0.5, and 0.8 mmole/kg. 10 Animals were used in each dosage group.

[2] = system: test population of animals
Rats [3] = details: doses of 0.1 mmol/kg, Mendonca-dias et al.; cited from earlier work

Manganese chloride [MnCl₂]
LD₅₀ (Rats [1]): less than 0.2 mmole/kg
LD₅₀ ([2]; Table A, species and unit not given): 0.1
Safety Factor ([2]; ratio of LD₅₀ and dose for T₁ = 200): 10
lethality (Rats [3]): almost always lethal
